Assay [1] concerns the target T1, CD47:Fc (Sino Biological, cat # 12283-H02H) (UniProt Q08722, in part).
T1 construct: Bought reagent; not shown: Fc part of the bought fusion
The assay can be described thus: bio-layer interferometry (Blitz), biosensor pre-loaded with CD47:Fc; concentration not shown. The protocol: Methods and resultt—The biosensor was pre-loaded with CD47:Fc, which led to a stable association plateau (FIG. 3A). Upon subsequent incubation with his-tagged SIRPα-41BBL (SEQ ID NO: 5) a rapid association of the his-tagged SIRPα-41BBL to CD47:Fc was detected (FIG. 3A). […] Upon reaching a stable association plateau, the biosensor was washed with medium to determine the off-rate of the his-tagged SIRPα-41BBL from CD47:Fc.

Chains of the proteins cited; added tags and fusions are not shown. Lines headed by an entry give the natural chain unless they say otherwise; changes in a name come on top. Residues count along the entry.
UniProt Q08722, 19-139 limits assumed: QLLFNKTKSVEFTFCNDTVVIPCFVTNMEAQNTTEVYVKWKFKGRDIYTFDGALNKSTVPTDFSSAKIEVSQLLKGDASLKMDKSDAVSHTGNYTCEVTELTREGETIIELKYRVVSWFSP
UniProt Q07011: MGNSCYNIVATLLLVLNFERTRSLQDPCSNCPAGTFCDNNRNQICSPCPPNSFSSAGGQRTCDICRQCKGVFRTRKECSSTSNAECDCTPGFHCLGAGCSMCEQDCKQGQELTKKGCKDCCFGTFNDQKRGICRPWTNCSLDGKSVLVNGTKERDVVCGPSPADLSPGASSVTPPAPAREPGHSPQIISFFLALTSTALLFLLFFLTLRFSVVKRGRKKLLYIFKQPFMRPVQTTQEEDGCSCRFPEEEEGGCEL

The target in assay [2] is T2, 41BB:Fc (Sino Biological, cat # 10041-H03H) (UniProt Q07011, in part).
T2 construct: Bought reagent; not shown: Fc part of the bought fusion
Kind of assay: bio-layer interferometry (Blitz), biosensor pre-loaded with 41BB:Fc; concentration not shown. The protocol: Upon similar loading of the biosensor with 41BB:Fc, binding of the 41BBL unit of his-tagged SIRPα-41BBL (SEQ ID NO: 5) was evaluated (FIG. 3B). As with the SIRPα domain, the 41BBL domain of the his-tagged SIRPα-41BBL rapidly bound to its target receptor (FIG. 3B), with the off-rate for the 41BBL/41BB interaction being also very slow, as evident from the limited dissociation occurring during the last dissociation phase.

B1: PD1-CD70 protein (SEQ ID NO: 6) (other)
chain: HHHHHHPGWFLDSPDRPWNPPTFSPALLVVTEGDNATFTCSFSNTSESFVLNWYRMSPSNQTDKLAAFPEDRSQPGQDCRFRVTQLPNGRDFHMSVVRARRNDSGTYLCGAISLAPKAQIKESLRAELRVTERRAEVPTAHPSPSPRPAGQFQTLVGQRFAQAQQQLPLESLGWDVAELQLNHTGPQQDPRLYWQGGPALGRSFLHGPELDKGQLRIHRDGIYMVHIQVTLAICSSTTASRHHPTTLAVGICSPASRSISLLRLSFHQGCTIASQRLTPLARGDTLCTNLTGTLLPSRNTDETFFGVQWVRP
notes: also called control protein PD1-CD70
As to B1, the binding result in assay [1] and in assay [2] was “no binding” each time.

The record behind these values is patent publication US20240109952A1 (KAHR MEDICAL, published 2024).
